What was measured:
Rattus norvegicus = species: Rattus norvegicus; test: Selectivity ratio of Ki for sigma1 receptor in rat brain membranes to Ki for sigma2 receptor in rat brain membranes; type: cell membranes
[1] = biological target: Sigma non-opioid intracellular receptor 1 (Rattus norvegicus, UniProt Q9R0C9); test: Displacement of [3H](+)-pentazocine from sigma1 receptor in rat brain membranes after 120 mins by radioligand binding assay; type: cell membranes

Sequences of proteins named here, by UniProt entry; tags and fusion partners are left off.
UniProt Q9R0C9, whole entry: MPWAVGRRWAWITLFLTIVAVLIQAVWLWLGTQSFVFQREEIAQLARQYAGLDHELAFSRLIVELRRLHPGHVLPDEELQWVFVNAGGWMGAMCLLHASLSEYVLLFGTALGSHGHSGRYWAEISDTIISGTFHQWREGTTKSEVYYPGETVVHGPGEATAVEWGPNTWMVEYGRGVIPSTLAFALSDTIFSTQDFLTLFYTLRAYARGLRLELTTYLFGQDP

Row | Ratio Ki (Rattus norvegicus) | Structure (SMILES) | Ki [1] [µM]
1 | 7.8 | O=c1[nH]c2ccccc2n1CCCCN1CCN(c2ccc(F)cc2)CC1 | –
2 | – | Cn1c(=O)n(CCCCN2CCN(c3ccc(F)cc3)CC2)c2ccccc21 | 0.366

From ChEMBL document CHEMBL4480394, “Benzimidazolone-based selective σ2 receptor ligands: Synthesis and pharmacological evaluation” (Eur J Med Chem, 2019)
